Source: ChEMBL document CHEMBL1781926, “Synthesis of 1-naphtylpiperazine derivatives as serotoninergic ligands and their evaluation as antiproliferative agents” (Eur J Med Chem, 2011)

Tested on: PC-3
Test: Antiproliferative activity against human PC3 cells assessed as growth inhibition after 96 hrs by SRB assay
Format: functional, cell-based

Row | SMILES | growth inhibition (GI)
1 | O=c1c2ccccc2nnn1OCCCN1CCN(c2cccc3ccccc23)CC1 | Dose-dependent effect
2 | N#C/N=C(\NCCCN1CCN(c2cccc3ccccc23)CC1)c1ccccn1 | Dose-dependent effect
